# Reference: paper PMC4595834, “Comparison of carbon-sulfur and carbon-amine bond in therapeutic drug: 4β-S-aromatic heterocyclic podophyllum derivatives display antitumor activity” (Scientific Reports, 2015)
# Sequences of proteins named here, by UniProt entry; tags and fusion partners are left off. A change or cut given only in a name is not applied to a line headed by its entry.
# UniProt P11388: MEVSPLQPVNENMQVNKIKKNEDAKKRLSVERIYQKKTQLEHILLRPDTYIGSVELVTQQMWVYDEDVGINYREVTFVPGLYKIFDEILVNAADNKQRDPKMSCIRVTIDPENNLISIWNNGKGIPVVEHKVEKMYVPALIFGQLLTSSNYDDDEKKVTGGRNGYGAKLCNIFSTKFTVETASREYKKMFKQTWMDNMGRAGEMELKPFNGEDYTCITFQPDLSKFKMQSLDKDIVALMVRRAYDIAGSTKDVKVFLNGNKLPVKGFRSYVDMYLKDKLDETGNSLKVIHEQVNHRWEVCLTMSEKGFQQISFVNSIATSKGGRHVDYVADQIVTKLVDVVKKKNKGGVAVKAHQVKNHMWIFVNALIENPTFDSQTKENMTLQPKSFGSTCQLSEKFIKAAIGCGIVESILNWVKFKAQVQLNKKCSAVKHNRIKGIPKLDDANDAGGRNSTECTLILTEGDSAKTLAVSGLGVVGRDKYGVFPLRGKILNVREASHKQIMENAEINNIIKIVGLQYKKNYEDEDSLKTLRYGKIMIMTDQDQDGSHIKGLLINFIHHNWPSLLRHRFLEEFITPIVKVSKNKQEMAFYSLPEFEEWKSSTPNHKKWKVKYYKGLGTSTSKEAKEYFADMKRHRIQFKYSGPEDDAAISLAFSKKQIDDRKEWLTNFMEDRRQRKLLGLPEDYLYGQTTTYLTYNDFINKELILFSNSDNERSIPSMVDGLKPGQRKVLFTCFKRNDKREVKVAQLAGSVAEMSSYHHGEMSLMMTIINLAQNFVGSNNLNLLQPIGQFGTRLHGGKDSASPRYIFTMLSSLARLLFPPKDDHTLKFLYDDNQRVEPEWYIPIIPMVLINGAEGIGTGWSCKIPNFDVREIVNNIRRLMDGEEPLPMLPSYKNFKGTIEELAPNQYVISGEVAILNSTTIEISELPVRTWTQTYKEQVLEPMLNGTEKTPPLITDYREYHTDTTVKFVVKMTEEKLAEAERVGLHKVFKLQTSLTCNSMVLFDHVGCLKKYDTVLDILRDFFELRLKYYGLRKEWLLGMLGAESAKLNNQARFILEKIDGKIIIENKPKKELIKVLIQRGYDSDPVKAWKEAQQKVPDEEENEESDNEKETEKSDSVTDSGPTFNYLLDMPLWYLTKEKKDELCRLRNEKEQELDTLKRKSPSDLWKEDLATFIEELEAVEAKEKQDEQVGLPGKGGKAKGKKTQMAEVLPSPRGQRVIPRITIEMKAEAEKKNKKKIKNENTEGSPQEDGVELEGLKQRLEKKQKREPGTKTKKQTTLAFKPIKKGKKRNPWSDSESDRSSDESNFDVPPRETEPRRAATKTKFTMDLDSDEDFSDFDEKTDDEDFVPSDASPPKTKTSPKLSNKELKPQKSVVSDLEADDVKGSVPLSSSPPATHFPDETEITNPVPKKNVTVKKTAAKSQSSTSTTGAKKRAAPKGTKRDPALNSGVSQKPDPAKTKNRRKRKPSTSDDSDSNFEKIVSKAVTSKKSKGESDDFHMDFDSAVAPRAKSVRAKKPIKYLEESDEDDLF
# Target: T1, Topoisomerase II (Homo sapiens, UniProt P11388)
# T1 construct: purchased TopoGEN Inc., USA 2000H
# Assay: kDNA decatenation assay (Topoisomerase II inhibition)
# Type: biochemical
# Conditions: 100 μM
# Method: Kinetoplast DNA (kDNA) is a catenated network of mitochondrial DNA seen in trypanosomes. The kDNA decatenation assay has been utilized to test drug potential to inhibit Topo II activity.
# Topoisomerase II activity was determined using kit (TopoGEN Inc., USA, Cat no. 2000H). […] Next, 4 U of topoisomerase II was added and the reaction was allowed to proceed for 60 min at 37 °C. The reaction was stopped by the addition of 1/10 volume of 1 mg/mL proteinase K and incubated for 15 min at 37 °C. The reaction was quenched via the addition of loading buffer (350 mM Tris, pH 6.8, 12% SDS, 0.012% bromophenol blue, 47% glycerol) and was then analyzed by electrophoresis on a 1% agarose gel in TBE buffer (89 mM Tris, 89 mM borate, and 2 mM Na-EDTA, pH 8.3) for 0.5 h at 140 V. The gel was visualized under UV illumination and photographed on an Alpha Imager.
smiles,measurement,value
"COc1cc([C@@H]2c3cc4c(cc3[C@@H](O[C@@H]3O[C@@H]5CO[C@@H](C)O[C@H]5[C@H](O)[C@H]3O)[C@H]3COC(=O)[C@H]23)OCO4)cc(OC)c1O [etoposide, reference compound]",inhibition of catalytic activity of Topo II (kDNA decatenation),partly inhibition effect
